For 1 molecule, Kd results are on record in patent publication US8778985B2, “Inhibiting amyloid-beta peptide/rage interaction at the blood-brain barrier” (The University of Rochester, priority 2006, dated 2014).

Protein sequences, listed by entry. Tags and fused reporters are not part of them. Residues count along the entry.
UniProt Q15109, 23-404: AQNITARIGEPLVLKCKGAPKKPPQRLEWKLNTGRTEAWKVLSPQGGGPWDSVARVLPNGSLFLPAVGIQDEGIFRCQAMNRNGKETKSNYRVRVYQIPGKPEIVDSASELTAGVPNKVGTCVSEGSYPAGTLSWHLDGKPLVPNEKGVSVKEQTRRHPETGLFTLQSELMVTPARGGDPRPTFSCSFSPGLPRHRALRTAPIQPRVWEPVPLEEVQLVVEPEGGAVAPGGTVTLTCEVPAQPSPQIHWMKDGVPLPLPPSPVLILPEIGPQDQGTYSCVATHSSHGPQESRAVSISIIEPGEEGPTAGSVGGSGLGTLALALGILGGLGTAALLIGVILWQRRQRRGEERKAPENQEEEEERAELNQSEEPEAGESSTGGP

In this assay the target is T1, RAGE (Homo sapiens, UniProt Q15109).
T1 construct: expressed in transfected cells; host or cells: Chinese hamster ovary (CHO) cells
Kind of assay: 125I-Aβ40 specific binding on RAGE-transfected CHO cells at 4° C., competitive inhibition. The note with it: read-out: Kd (binding constant) of 125I-Aβ40 binding to RAGE, as reported in Mackic et al., 1998. The text has this:
Data are mean±s.e.m., n=3 per group.
All three are tertiary amides substituted with a large, hydrophobic hydrocarbon moiety and a monosubstituted aromatic moiety. Linkage to the monosubstituted aromatic is either direct (FPS2) or via an alkyl (FPS1) or heteroaromatic (FPS3) spacer. Two of the compounds also feature a highly electron-poor substituted benzene ring (3-nitro, 4-chloro for FPS1; 3,5-dinitro for FPS2).

What is called Kd is the free concentration of one partner at which half of the binding sites on the other are occupied at equilibrium, for simple one-to-one binding. In the case of `CC[C@H](C)[C@H](NC(=O)[C@H](C)NC(=O)CNC(=O)[C@H](CCCCN)NC(=O)[C@H](CC(N)=O)NC(=O)[C@H](CO)NC(=O)CNC(=O)[C@@H](NC(=O)[C@H](CC(=O)O)NC(=O)[C@H](CCC(=O)O)NC(=O)[C@H](C)NC(=O)[C@H](Cc1ccccc1)NC(=O)[C@H](Cc1ccccc1)NC(=O)[C@@H](NC(=O)[C@H](CC(C)C)NC(=O)[C@H](CCCCN)NC(=O)[C@H](CCC(N)=O)NC(=O)[C@H](Cc1cnc[nH]1)NC(=O)[C@H](Cc1cnc[nH]1)NC(=O)[C@@H](NC(=O)[C@H](CCC(=O)O)NC(=O)[C@H](Cc1ccc(O)cc1)NC(=O)CNC(=O)[C@H](CO)NC(=O)[C@H](CC(=O)O)NC(=O)[C@H](Cc1cnc[nH]1)NC(=O)[C@H](CCCNC(=N)N)NC(=O)[C@H](Cc1ccccc1)NC(=O)[C@H](CCC(=O)O)NC(=O)[C@H](C)NC(=O)[C@@H](N)CC(=O)O)C(C)C)C(C)C)C(C)C)C(=O)N[C@H](C(=O)NCC(=O)N[C@@H](CC(C)C)C(=O)N[C@@H](CCSC)C(=O)N[C@H](C(=O)NCC(=O)NCC(=O)N[C@H](C(=O)N[C@H](C(=O)O)C(C)C)C(C)C)C(C)C)[C@@H](C)CC` [125I-Aβ40, reference compound], the Kd amounted to 75 ± 8 nM.
